Test results reported in patent US9636379B2, “Compositions and methods for treating pruritus” (Washington University, priority 2007, dated 2017).

The chains behind the UniProt entries cited, without tags or fusion partners.
UniProt P42866, whole entry: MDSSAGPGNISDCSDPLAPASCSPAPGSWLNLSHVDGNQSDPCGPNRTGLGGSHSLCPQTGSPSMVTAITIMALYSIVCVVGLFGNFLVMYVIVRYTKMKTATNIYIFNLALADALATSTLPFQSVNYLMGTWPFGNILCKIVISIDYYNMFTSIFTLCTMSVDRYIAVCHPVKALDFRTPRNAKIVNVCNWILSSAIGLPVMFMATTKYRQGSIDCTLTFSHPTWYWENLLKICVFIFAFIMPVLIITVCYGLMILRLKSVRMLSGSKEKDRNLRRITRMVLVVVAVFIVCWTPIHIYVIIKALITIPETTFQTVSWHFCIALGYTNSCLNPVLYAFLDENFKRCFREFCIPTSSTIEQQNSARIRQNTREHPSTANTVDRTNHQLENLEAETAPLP

Target: mu-opioid receptor (MOR) (Mus musculus, UniProt P42866)

## C[C@@H](NC(=O)[C@@H](N)Cc1ccc(O)cc1)C(=O)NCC(=O)N(C)[C@@H](Cc1ccccc1)C(=O)NCCO [DAMGO]
0.02 nmol/5 μl i.t.
  scratching after intrathecal DAMGO: induced scratching behavior
GRPR mutant mice
  DAMGO-induced scratching behavior: almost abolished
